High-throughput results (PubChem BioAssay)
uPA generation – cell surface uPA generation inhibition | cell surface uPA generation assay, qHTS | Potency, µM (series often up to 38.3 µM), most hits filed as inhibitors | actives 0.31% (n = 330,000) | AID 540303; active = well fitted inhibition curve with a large enough effect; inconclusive = small, poorly fitted or top-dose-only effect; inactive = no such curve, though single readings can be large or run the other way; tested in mouse RAW 264.7 cells; note: nearly all actives have a fitted effect of over 55% in size
a7 integrin act – activators of alpha7 integrin expression for muscular dystrophy; alpha7betagal myoblasts, beta-gal FDG fluorescence, 48 h; Potency, µM (series often up to 38.3 µM), actives largely listed as activators; actives 0.064% (n = 350,000); active = well fitted activation curve with a large enough effect; inconclusive = small, poorly fitted or top-dose-only effect; inactive = no such curve, though single readings can be large or run the other way; note: nearly all actives have a fitted effect of over 60% in size
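Alpha7betagal+/- myoblasts (passage 13) were plated 16-24 hr, then exposed to compounds (1:260 dilution of DMSO stock) for 48 hours at 37C. After MPER lysis, β-galactosidase reporter activity was read as FDG fluorescence (ex 480/em 540) after 30 minutes.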
Rango release inh – prevents RanGTP from dissociating the Rango-importin beta complex. AID 540253. Biochemical FRET Rango-importin beta, RanGTP-induced dissociation. O95149+P62826. actives 0.071% (n = 340,000). Potency, µM (series often up to 46.1 µM); note: nearly all actives have a fitted effect of over 45% in size
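FRET read at 45 min, room temperature: inhibitors block the CFP/YFP signal rise when RanGTP (0.6 uM Ran, 2 mM GTP, 0.2 uM RCC1) frees Rango (0.1 uM) from importin beta (0.25 uM). Pre-read after 5 min compound exposure flags interference.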
Rango-impB inh – prevents formation of the Rango-importin beta complex; Q14974; Rango CFP/YFP FRET sensor + importin beta, 45 min; Potency, µM (doses to about 92.2 µM); actives 0.031% (n = 340,000); note: nearly all actives have a fitted effect of over 15% in size
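FRET biosensor Rango (snurportin 1 IBB between N-terminal EYFP and C-terminal Cerulean), 50 nM in PBS/1 mM DTT/0.02% Tween-20/0.1% BSA, preincubated 5 min RT with compound; 0.125 microM importin beta added, 45 min RT, CFP/YFP FRET ratio read.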
Giardia kill – Giardia lamblia killing. Giardia lamblia trophozoite viability. activity change, % at 7.66 µM, hits read low. actives 0.15% (n = 340,000). AID 540267; in the data active = activity change below about -80%; inconclusive = between about -30% and that limit;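 note: parasites exposed to compound for two days anaerobically before the ATP read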
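ATP-content bioluminescence gauges trophozoite survival. Cells (100/well) receive compound and incubate anaerobically for 48 hrs at 37 deg C; detection reagent follows for 15-30 min at room temperature.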
Hits are given with their value; - = inactive; ? = inconclusive; . = not tested or not shown; [ ] = remark or other dose. Sampled rows, rich in hits. Any-hit rate of the full collection: about 0.59%. Unless noted, calls come from the whole dose curve.

SMILES	uPA generation	a7 integrin act	Rango release inh	Rango-impB inh	Giardia kill
O=C(Nc1c(F)c(F)c(F)c(F)c1F)c1ccc(Br)o1	.	-	.	.	.
COc1ccc(-n2nc([N+](=O)[O-])c(=NCCc3cccc(C)c3)n2O)cc1	-	-	-	-	-85
COc1ccc(-n2nc([N+](=O)[O-])c(=NCCCN3CCCC3=O)n2O)cc1	11µM	-	-	-	-85
O=C1CCCN1CCCN=c1c([N+](=O)[O-])nn(-c2ccc(Cl)cc2)n1O	-	-	-	-	?
Cc1cccc(-n2nc([N+](=O)[O-])c(=NC3CCN(Cc4ccccc4)CC3)n2O)c1	2.8µM	-	-	-	-84
Cc1cccc(CCN=c2c([N+](=O)[O-])nn(-c3ccccc3)n2O)c1	?	-	-	-	-91
Cc1nnc(SCC(=O)N(CCC#N)c2ccc3c(c2)OCCO3)s1	-	-	-	-	-
N#CN=c1snc(-c2ccccc2Cl)n1-c1ccccc1Cl	.	.	.	.	-
O=S(=O)(O)c1c(NS(=O)(=O)c2ccccc2)ccc2ccccc12	.	.	.	.	-
COc1ccc2nc(NC(=O)c3ccccc3F)sc2c1	10µM	?	-	-	-
COc1ccc2nc(NC(=O)c3ccccc3C(=O)O)sc2c1	-	-	-	-	-
COc1ccc(C(=O)Nc2nc3ccccc3s2)c(OC)c1	-	-	-	-	-95
COc1ccccc1C(=O)Nc1nc2ccccc2s1	?	-	-	-	?
COc1ccc(-c2ccc3c(c2)C2CC3CCN2S(=O)(=O)c2ccccc2C)cc1 (configuration not stated)	?	-	-	-	-
Cc1cc(C)cc(OCC(=O)N/N=C/c2ccc([N+](=O)[O-])o2)c1	.	-	-	-	-88
Cc1ccc(C(=O)N/N=C\c2ccc([N+](=O)[O-])o2)cn1	-	-	-	-	?
Cc1ccccc1OCC(=O)N/N=C/c1ccc([N+](=O)[O-])o1	?	-	16µM	?	-93
CCCCCC1CC1C(=O)N/N=C/c1ccc(N(C)C)cc1 (configuration not stated)	-	-	8.2µM	?	-
CN(C)c1ccc(/C=N/NC(=O)COc2ccccc2)cc1	-	-	-	-	-
CCc1cccc(NC(=O)Cn2c(=O)c3cccn3c3ccccc32)c1	-	-	-	-	-
COCc1cc(S(=O)c2ccc(Cl)cc2)nc(C)n1 (configuration not stated)	5µM	-	-	-	-
COCc1cc(Sc2ccc(Cl)cc2)nc(C)n1	-	-	-	-	-
COc1ccccc1OCCn1cc(/C=C(\C#N)C(=O)NCc2ccco2)c2ccccc21	-	-	-	?	-
Cc1ccc(C)c(OCCn2cc(/C=C(\C#N)C(=O)NCc3ccco3)c3ccccc32)c1	-	-	4.1µM	?	-
Cc1nc2ccc3nc(NC(=O)c4ccc5c(c4)OCCO5)sc3c2s1	-	-	-	-	-
SMILES	uPA generation	a7 integrin act	Rango release inh	Rango-impB inh	Giardia kill
Cc1onc(-c2ccccc2)c1C(=O)Nc1ncc([N+](=O)[O-])s1	-	-	-	-	-94
Cc1cnc(NC(=O)c2ccc3c(c2)OCCO3)s1	?	-	-	-	-91
CCCOc1ccccc1NC(=O)c1c(-c2ccccc2)noc1C	?	-	-	58µM	-
O=C(Nc1ncc([N+](=O)[O-])s1)c1ccc2c(c1)OCO2	-	-	-	-	-95
Cc1onc(-c2ccccc2)c1C(=O)Nc1nnc(C(C)C)s1	-	-	-	-	-
CC(C)CCOc1ccc(C(=O)NN2C(=O)NC3(CCCCC3)C2=O)cc1	-	-	-	?	-
O=C(Nc1ncc([N+](=O)[O-])s1)c1ccco1	-	-	?	?	-90
O=C(NCC(=O)N1CCN(C(c2ccccc2)c2ccccc2)CC1)c1ccccc1Br	.	-	.	.	.
CC(OC(=O)c1ccccc1NCCO)C(=O)NC1CCCCC1C (configuration not stated)	-	-	-	-	-
O=[N+]([O-])c1nn(-c2ccccc2)n(O)c1=NCc1ccc2c(c1)OCO2	-	-	-	-	-
COc1ccc(-n2nc([N+](=O)[O-])c(=NCc3ccc4c(c3)OCO4)n2O)cc1	-	-	-	-	-92
O=[N+]([O-])c1nn(-c2ccc3c(c2)OCCO3)n(O)c1=NCCCO	-	-	-	-	?
Cc1ccc(CN=c2c([N+](=O)[O-])nn(-c3ccc4c(c3)OCCO4)n2O)cc1	-	-	-	-	-87
CCOC(=O)c1ccccc1S(=O)(=O)N1CCN(c2nc(-c3cccs3)nc3ccccc23)CC1	.	.	.	.	-
O=C1C[C@H](c2ccccc2Cl)N1S(=O)(=O)c1ccccc1[N+](=O)[O-]	.	.	.	.	-
CCc1ccc(NC(=O)Cn2c(SCc3ccc(C)cc3)nc3ccncc32)cc1	.	.	.	.	-
Cn1cc(/C=C(\C#N)C(=O)Nc2ccccc2O)c2ccccc21	-	-	18µM[inhibitor]	?	-
CC(C)OC(=O)/C(C#N)=C/c1cn(C)c2ccccc12	-	-	-	?	-
Cc1ccc(NC(=O)/C=C/c2ccco2)cc1S(=O)(=O)N1CCCCCC1	0.89µM	-	-	?	-
O=C(/C=C/c1ccco1)Nc1cccc(S(=O)(=O)N2CCOCC2)c1	-	-	-	-	-
Cc1nnc(NC(=O)CSc2nnc(CCNC(=O)c3ccccc3F)n2C)s1	-	11µM	?	-	-
CCc1nnc(NC(=O)CSc2nnc(CNc3ccc(C)cc3)n2C)s1	-	-	-	-	-
Cc1ccc(NCc2nnc(SCC(=O)Nc3nnc(C)s3)n2C)cc1	-	10µM	-	-	-
CC(=O)Nc1ccc(S(=O)(=O)Nc2ccccc2C(=O)N2CCCCC2)cc1	-	-	-	-	-
CCCCCCCC/C=C\CCCCCCCC(=O)NCCO	-	.	-	-	-
SMILES	uPA generation	a7 integrin act	Rango release inh	Rango-impB inh	Giardia kill
CCCCCCCC/C=C\CCCCCCCC(=O)NCCc1ccc(O)c(O)c1	3.2µM	.	-	-	-
Cc1cc(C)cc(NC(=O)/C=C/c2ccc([N+](=O)[O-])s2)c1	-	-	1µM	?	?
Cc1ccccc1NC(=O)/C=C/c1ccc([N+](=O)[O-])s1	-	-	0.65µM[inhibitor]	?	-
Cc1ccnc(NC(=O)CNC(=O)c2ccccc2Br)c1	-	-	-	-	-
O=C(Oc1ccc(=O)[nH]n1)c1ccccc1	.	-	.	.	.
O=C(O)CSc1nnc(-c2cccc(S(=O)(=O)N3CCOCC3)c2)n1-c1ccc(F)cc1	-	-	-	-	-
CC1CC=CC2C1C(=O)N(Cc1ccccc1)C2c1ccc(-c2ccoc2)cc1F (configuration not stated)	.	.	.	.	-
Cc1cc(C)n2nc(-c3ccc(Cl)cc3)cc2n1	-	-	-	-	-
Cc1nc2cc(-c3ccc(Cl)cc3)nn2c(NCCN(C)C)c1C	-	-	-	-	-96
Cc1ccc(C)c(OCC(O)CN2CCC(Cc3ccccc3)CC2)c1 (configuration not stated)	-	-	-	-	-
Cc1ccnc(NC(=O)c2ccccc2NC(=O)c2ccc(Cl)cc2Cl)c1	2.8µM	-	-	-	-
